Laboratory results reported in ChEMBL document CHEMBL3351838, “Ligand-based pharmacophore modeling and virtual screening for the discovery of novel 17β-hydroxysteroid dehydrogenase 2 inhibitors” (J Med Chem, 2014).

Biological target: T1, 17-beta-hydroxysteroid dehydrogenase type 2 (Homo sapiens) (UniProt P37059)
T1 sequence (whole entry): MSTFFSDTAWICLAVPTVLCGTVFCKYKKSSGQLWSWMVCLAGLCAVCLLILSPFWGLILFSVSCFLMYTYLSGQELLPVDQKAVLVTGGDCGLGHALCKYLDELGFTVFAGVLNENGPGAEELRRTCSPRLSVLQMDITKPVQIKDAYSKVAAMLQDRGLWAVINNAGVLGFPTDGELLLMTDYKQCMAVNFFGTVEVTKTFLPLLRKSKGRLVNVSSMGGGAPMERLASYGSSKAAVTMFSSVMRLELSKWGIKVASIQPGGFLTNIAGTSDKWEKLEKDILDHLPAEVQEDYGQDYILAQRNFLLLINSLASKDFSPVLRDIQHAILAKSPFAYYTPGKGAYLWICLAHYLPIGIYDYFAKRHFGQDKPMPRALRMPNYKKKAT
Conditions: 1 uM

C[C@]12CC[C@@H]3c4ccc(O)cc4CC[C@H]3[C@@H]1CC[C@@]21CCCC(=O)O1
inhibition: 85%
